# Measurements reported in PubChem BioAssay AID1530 (NMMLSC, 2009).
# The entries are a selection whose mix differs from that of the whole data set. The source made the active and inactive calls. Rule as the data show it: active = percent response above about 24% (passing the limit was not always enough); inactive = the rest.
# Test system: MEKK2 (MAP3K2) mutant PB1 domain binding to MEK5, human
# Assay: MEK5 binding signal on mutant MEKK2 PB1, primary screen, biochemical, multiplex bead flow cytometry, Alexa488-MEK5 (AID 1530)
# Settings: at 10 µM, active compounds read high
row,Compound,percent response
1,CCN1CCC(Nc2cccc(F)c2)CC1,inactive: 0%
2,CN(C)c1ccc(C(=O)NCC2(N3CCCCC3)CCCCC2)cc1,inactive: -1%
3,COc1cc(OC)cc(C(=O)NCC2(N3CCCCC3)CCCCC2)c1,inactive: 8%
4,Fc1ccccc1NC1CCN(Cc2ccccc2)CC1,inactive: -2%
5,CCC(CO)(C(=O)OC1CN2CCC1CC2)c1ccccc1 (centres undefined),inactive: 7%
6,COc1cccc(C(=O)N(c2cc(C)cc(C)c2)C2CCN(C(=O)OC(C)(C)C)CC2)c1,inactive: 1%
7,COc1cc(OC)cc(C(=O)NCC2(N3CCOCC3)CCCCC2)c1,inactive: 1%
8,CCCOc1ccc(C)cc1CN(CCCl)CCCl,inactive: -5%
9,CN1CCC(Nc2ccc(Cl)cc2)CC1,inactive: 3%
10,CN1CCC(Nc2ccc(F)c(Cl)c2)CC1,inactive: 2%
11,CCOc1ncccc1C(=O)NCC1(N2CCOCC2)CCCCC1,inactive: -5%
12,CCCOc1ccc(C(=O)NCC2(N(C)C)CCCCC2)cc1,inactive: 8%
13,O=C(O)C1(Nc2ccccc2)CCN(Cc2ccccc2)CC1,inactive: 0%
14,CC(C)(C)OC(=O)N1CCC(Nc2ccccc2)CC1,inactive: 2%
15,CCOC(=O)N1CCC(Nc2ccc(C)cc2)CC1,inactive: 4%
16,O=C(OC1CN2CCC1CC2)C1c2ccccc2C=Cc2ccccc21 (centres undefined),inactive: 9%
17,COc1ccc(C(=O)NCC2(N3CCOCC3)CCCCC2)cc1OC,inactive: -14%
18,CCCN1CCC(Nc2cc(OC)cc(OC)c2)CC1,inactive: 7%
19,c1ccc(CN2CCC(Nc3ccccc3)CC2)cc1,inactive: -1%
20,CN(C)C1(CNC(=O)c2cccc(C#N)c2)CCCCC1,inactive: 8%
21,CC(C)(C)OC(=O)N1CCC(N(C(=O)c2ccccc2)c2ccc(Cl)cc2)CC1,inactive: -3%
22,N#Cc1ccc(C(=O)NCC2(N3CCCCC3)CCCCC2)cc1,inactive: 8%
23,O=C(NCC1(N2CCCCC2)CCCCC1)c1cccc(C(F)(F)F)c1,inactive: 0%
24,COc1ccc(NC2CCN(C(=O)OC(C)(C)C)CC2)cc1,inactive: -12%
25,CN1CCN(CCOC(=O)C(O)(c2ccccc2)c2ccccc2)CC1,inactive: 0%
26,O=C(NCC1(N2CCOCC2)CCCCC1)c1cc(=O)[nH]c2ccccc12,inactive: 5%
27,COc1cc(C(=O)NCC2(N3CCCCC3)CCCCC2)ccc1OC(F)F,inactive: 1%

row,Compound,percent response
1,O=C(NCC1(N2CCCCC2)CCCCC1)c1ccc(OC(F)F)cc1,inactive: -1%
2,O=C(NCC1(N2CCCCC2)CCCCC1)c1cccc([N+](=O)[O-])c1,inactive: -2%
3,N#CC1(Nc2ccccc2)CCN(CCc2ccccc2)CC1,inactive: 11%
4,CCN1CCC(Nc2ccc(Cl)cc2)CC1,inactive: 4%
5,CN1CCC(Nc2cccc(F)c2)CC1,inactive: -3%
6,CCCOc1ccc(C(=O)NCC2(N(C)C)CCCCC2)cc1OC,inactive: 2%
7,CN(C)c1cccc(C(=O)NCC2(N3CCCCC3)CCCCC2)c1,inactive: 7%
8,COc1ccc(CN(CCCl)CCCl)cc1Cl,inactive: -15%
9,CC(C)c1ccc(NC2CCN(C(=O)OC(C)(C)C)CC2)cc1,inactive: -1%
10,COc1cc(OC)c(C(=O)NCC2(N(C)C)CCCCC2)cc1OC,inactive: 3%
11,O=C(NCC1(N2CCOCC2)CCCCC1)c1cc2ccccc2o1,inactive: 5%
12,Cc1cc(C)cc(N(C(=O)c2ccccc2)C2CCN(C(=O)OC(C)(C)C)CC2)c1,inactive: 13%
13,CCOC(=O)N1CCC(Nc2ccc(OC)cc2)CC1,inactive: -5%
14,O=C(OC1CN2CCC1CC2)C1c2ccccc2Oc2ccccc21 (centres undefined),inactive: 6%
15,N#CC1(Nc2ccccc2)CCN(Cc2ccccc2)CC1,inactive: 3%
16,O=C(NCC1(N2CCCCC2)CCCCC1)c1ccc(=O)[nH]c1,inactive: 8%
17,COc1ccc(C(=O)NCC2(N3CCCCC3)CCCCC2)c(OC)c1OC,inactive: 3%
18,CC(C)(C)OC(=O)N1CCC(N(C(=O)c2ccccc2)c2ccc(F)cc2)CC1,inactive: 2%
19,COc1ccc(C(=O)NCC2(N3CCCCC3)CCCCC2)cc1,inactive: 1%
20,CSc1ccccc1C(=O)NCC1(N2CCCCC2)CCCCC1,inactive: -2%
21,Cc1ccc(OCC(C)C)c(CN(CCCl)CCCl)c1,inactive: 5%
22,COc1cc(C(=O)NCC2(N(C)C)CCCCC2)ccc1OC(F)F,inactive: 2%
23,CCOC(=O)N1CCC(Nc2cccc(C)c2)CC1,inactive: 6%
24,CCOc1ccc(C)cc1CN(CCCl)CCCl,inactive: -1%
25,CCOC(=O)N1CCC(Nc2ccc(F)cc2)CC1,inactive: 4%
26,COc1ccc(NC2CCN(CCc3ccccc3)CC2)c(OC)c1,inactive: 10%
27,O=C(NCC1(N2CCCCC2)CCCCC1)c1ccc(F)cc1,inactive: -3%
